Values joined by “and” are separate entries in the source; they are usually repeats but may differ in a detail not shown here. Equal values may be shown once. This is a selection; strong and weak results do not stand in their true shares. Results filed as inconclusive are left out. Active and inactive are the calls of the source. The call rests on the fitted dose curve; in most records, active means well fitted inhibition curve with a large enough effect; inconclusive means small, poorly fitted or top-dose-only effect; inactive means flat fitted curve, though single readings scatter.

By UniProt entry, the sequences of proteins in these tests, tags left out.
UniProt P08659, whole entry, looked up: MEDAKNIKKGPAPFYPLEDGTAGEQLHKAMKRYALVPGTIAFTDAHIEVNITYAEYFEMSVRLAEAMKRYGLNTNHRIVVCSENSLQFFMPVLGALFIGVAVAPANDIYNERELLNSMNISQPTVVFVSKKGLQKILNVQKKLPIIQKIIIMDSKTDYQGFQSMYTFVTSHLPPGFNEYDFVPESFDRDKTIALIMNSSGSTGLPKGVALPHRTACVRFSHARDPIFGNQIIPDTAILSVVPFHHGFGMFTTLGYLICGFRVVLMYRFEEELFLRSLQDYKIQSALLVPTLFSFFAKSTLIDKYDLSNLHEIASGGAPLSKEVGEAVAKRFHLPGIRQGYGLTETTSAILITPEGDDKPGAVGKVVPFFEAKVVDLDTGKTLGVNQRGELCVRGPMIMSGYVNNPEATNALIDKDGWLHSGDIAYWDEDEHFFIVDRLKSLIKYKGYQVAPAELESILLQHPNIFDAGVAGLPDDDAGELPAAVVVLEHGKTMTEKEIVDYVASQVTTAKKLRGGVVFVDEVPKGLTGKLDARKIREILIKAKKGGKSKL

This test concerns the target Luciferin 4-monooxygenase (Photinus pyralis) (UniProt P08659). Description: qHTS profiling assay for firefly luciferase inhibitor/activator using purifed enzyme and Km concentrations of substrates (counterscreen for miR-21 project).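 Further: plate controls were vehicle for no effect and reference inhibitor for full effect; nearly all actives have a fitted effect of over 55% in size.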 To be noted: purified FLuc, luminescence inhibition; at 57.5 µM (top of the series). (In general: In qHTS, concentration-response curves come from the screen itself.)
With `O=C(O)CNc1ccc([As](=O)(O)O)cc1`, the activity change, negative = inhibition was inactive: 2.02%.
To `O=[N+]([O-])c1cccc(NC2=NCC(CBr)S2)c1` (configuration not stated) belongs inactive: -1.41%.
Take `COc1ccc(C2=NCC(CBr)S2)cc1` (configuration not stated): the activity change, negative = inhibition was inactive: -3.15%.
Take `Cc1ccc(NP(=O)(Oc2ccccc2)Oc2ccccc2)nc1`: the activity change, negative = inhibition is inactive: 0.0908%.
As for `CCc1nc2c(n1)c1c(non1O)c1c2no[n+]1[O-]`, the activity change, negative = inhibition is inactive: 2.04%.
Consider `O=[N+]([O-])c1cc([N+](=O)[O-])c(CCNc2ccccc2)c([N+](=O)[O-])c1`, for which the activity change, negative = inhibition was inactive: 2.74%.
For `O=[N+]([O-])c1cccc2n[nH]nc12`, the activity change, negative = inhibition was inactive: 3.02%.
With `CC(=O)N1C2C3N(C(C)=O)C1C1N(C(C)=O)C(C(N1C(C)=O)N3C(C)=O)N2C(C)=O`, the activity change, negative = inhibition is inactive: -0.616%.
The value for `CCN(/C(=N/P(=O)(N1CCOCC1)N1CCOCC1)N1CCOCC1)c1ccc(OC)cc1` was inactive: -0.789%.
On to `Nc1ccc([As](=O)(O)c2ccc(N)cc2)cc1`, for which the activity change, negative = inhibition was inactive: -1.26%.
As to `CN(C)C(=O)OCCc1n(C)cc[n+]1C`, the activity change, negative = inhibition was inactive: 1.09%.
On to `CN(C(=O)Cc1ccc(Cl)c(Cl)c1)[C@H]1CCCC[C@H]1N1CCCC1`, for which the activity change, negative = inhibition is inactive: -0.149%.
Take `Cc1ccc(N/C(=N/P(=O)(N2CCOCC2)N2CCOCC2)N2CCOCC2)cc1`: the activity change, negative = inhibition was inactive: -0.233%.
To `NC(=O)c1cc([N+](=O)[O-])cc([N+](=O)[O-])c1N` belongs inactive: -2.96%.
Regarding `Clc1ccc(Cl)c(NC2=NCC(CBr)S2)c1` (configuration not stated), the activity change, negative = inhibition was inactive: -18.2%.
The value for `CN1CCCC(OC(=O)C(c2ccccc2)c2ccccc2)C1` (configuration not stated) was inactive: 2.23%; that for `COc1ccccc1OP(=O)(Nc1ccc(C)cn1)Oc1ccccc1OC` was inactive: 0.886%.
The value for `Cc1ccc(OP(=O)(Nc2nccs2)Oc2ccc(C)cc2)cc1` was inactive: -0.0136%; that for `Oc1ccccc1CNc1ccccn1` was inactive: -2.47%; that for `Cc1c2non([O-])c-2c(C)[n+](=O)[n+]1[O-]` was inactive: -5.95%.
To `O=C(NC(Sc1ccncn1)C(Cl)(Cl)Cl)c1ccccc1` (configuration not stated) belongs inactive: 3.74%; to `CC(C)CC(=O)NC(Sc1ccc(Cl)cc1)C(Cl)(Cl)Cl` (configuration not stated), inactive: 0.567%.
As to `Nc1cc(N)c2nonc2c1[N+](=O)[O-]`, the activity change, negative = inhibition was inactive: -1.35%.
To `O=P(Nc1nc2ccc(Cl)cc2s1)(c1ccccc1)c1ccccc1` belongs inactive: 2.02%; to `O=C(O)c1ccccc1[As](=O)(O)O`, inactive: -0.834%.
Consider `CC(=O)Nc1ccc([As](=O)(O)O)cc1`, for which the activity change, negative = inhibition was inactive: 4.33%.
To `CCOP(=O)(Nc1ccccc1)OCC` belongs inactive: 3.77% and inactive: 2.03%; to `Cc1cc(SC(NC(=O)c2ccc(F)cc2)C(Cl)(Cl)Cl)ncn1` (configuration not stated), inactive: 1.56%.
To `Cc1ccc(NP(=O)(Oc2ccccc2F)Oc2ccccc2F)nc1` belongs inactive: 7.29%; to `O=[N+]([O-])c1cc([N+](=O)[O-])c(CCN2CCOCC2)c([N+](=O)[O-])c1`, inactive: -0.876%.
To `Nc1cccc2ccc([As](=O)(O)O)cc12` belongs inactive: -12.8%; to `CCN(N=Nc1nonc1N)c1nonc1N`, inactive: 9.87%.

The values are drawn from PubChem BioAssay AID588342 (National Center for Advancing Translational Sciences (NCATS), 2011).
